In the assay the target is human liver glycogen phosphorylase a (HLGPa) (Homo sapiens, UniProt P06737). The experiment in a line: Human liver glycogen phosphorylase a enzymatic activity assay (coupled, fluorescent resorufin readout, with and without 10 mM glucose). It counts as biochemical.

The chains behind the UniProt entries cited, without tags or fusion partners. Residues count along the entry.
UniProt P06737, 2-847 limits assumed: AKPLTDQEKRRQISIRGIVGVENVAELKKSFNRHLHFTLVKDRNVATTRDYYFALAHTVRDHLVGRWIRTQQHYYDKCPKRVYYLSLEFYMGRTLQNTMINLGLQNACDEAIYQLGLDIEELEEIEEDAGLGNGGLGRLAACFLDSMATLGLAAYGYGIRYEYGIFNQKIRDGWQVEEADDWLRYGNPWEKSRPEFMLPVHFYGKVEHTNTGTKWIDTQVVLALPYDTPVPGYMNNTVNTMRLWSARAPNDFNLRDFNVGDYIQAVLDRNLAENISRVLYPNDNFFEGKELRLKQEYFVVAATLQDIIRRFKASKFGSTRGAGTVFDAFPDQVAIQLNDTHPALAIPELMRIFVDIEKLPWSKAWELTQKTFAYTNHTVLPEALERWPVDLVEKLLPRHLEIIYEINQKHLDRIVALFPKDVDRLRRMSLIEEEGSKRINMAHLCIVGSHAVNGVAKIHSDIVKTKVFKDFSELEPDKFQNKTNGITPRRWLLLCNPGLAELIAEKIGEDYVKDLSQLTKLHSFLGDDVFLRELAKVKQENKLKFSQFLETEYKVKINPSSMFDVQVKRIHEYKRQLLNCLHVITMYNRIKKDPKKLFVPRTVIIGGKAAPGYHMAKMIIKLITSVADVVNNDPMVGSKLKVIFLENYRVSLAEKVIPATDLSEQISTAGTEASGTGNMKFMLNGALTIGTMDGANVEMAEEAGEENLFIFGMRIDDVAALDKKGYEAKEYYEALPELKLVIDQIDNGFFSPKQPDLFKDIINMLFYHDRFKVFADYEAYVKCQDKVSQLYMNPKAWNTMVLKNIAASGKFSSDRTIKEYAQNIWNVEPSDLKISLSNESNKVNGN

Consider `O=C(Nc1sc(-c2ccccc2)cc1C(=O)N[C@H](C(=O)O)C1CCCCC1)Nc1c(Cl)cc(Cl)cc1Cl`, for which, for the setting “human liver glycogen phosphorylase a, table does not say whether with or without 10 mM glucose”, the 50% inhibitory concentration (IC50) is 840 nM.
Where the note is “human liver glycogen phosphorylase a enzymatic activity assay”, `COc1ccc(-c2nc(C(=O)N[C@H](C(=O)O)C3CCCCC3)c(NC(=O)Nc3c(C)cc(C)cc3C)s2)cc1` yielded a half-inhibitory concentration (IC50) of 700 nM.

Source of the values: patent US20070249670A1, “Glycogen Phosphorylase Inhibitor Compounds and Pharmaceutical Compositions Thereof” (SMITHKLINE BEECHAM CORPORATION, priority 2004, published 2007).
